This experiment has as its target T1, ADORA2B (Homo sapiens, UniProt P29275).
T1 sequence (P29275 1-332): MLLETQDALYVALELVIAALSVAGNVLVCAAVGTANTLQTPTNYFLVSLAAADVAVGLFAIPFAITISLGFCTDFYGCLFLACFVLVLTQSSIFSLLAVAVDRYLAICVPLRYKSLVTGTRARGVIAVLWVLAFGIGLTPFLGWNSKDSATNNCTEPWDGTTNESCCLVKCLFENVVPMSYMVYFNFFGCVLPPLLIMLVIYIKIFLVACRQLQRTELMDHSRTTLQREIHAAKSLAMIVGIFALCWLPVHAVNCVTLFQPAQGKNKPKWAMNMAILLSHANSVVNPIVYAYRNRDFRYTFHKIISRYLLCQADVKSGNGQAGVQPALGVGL
The experiment is described as follows: LANCE Ultra cAMP assay. Conditions: read-out: IC50 (known antagonists, TP-16). For orientation: TR-FRET usually uses a lanthanide donor and a delayed reading to cut background.

Regarding `CCCn1c(=O)c2[nH]c(-c3ccc(OCC(=O)Nc4ccc(C#N)cc4)cc3)nc2n(CCC)c1=O` [reference compound], the 50% inhibitory concentration (IC50) came to 990 nM.

The term IC50 denotes the concentration needed to halve the response being measured.

These data come from PMC7799360, “Reprogramming immunosuppressive myeloid cells facilitates immunotherapy for colorectal cancer” (EMBO Molecular Medicine, 2020).
